# scFv variants of Ab-91 (heavy chain) against a SARS-CoV-2 spike peptide

Values reported by Engelhart et al. 2022, doi:10.1038/s41597-022-01779-4 (FLAb copy).

Target: peptide PDVDLGDISGINAS, taken from heptad repeat 2 (HR2) of SARS-CoV-2 spike.

Ab-91 is the parent antibody, in scFv form: VL, then a 15-residue (Gly4Ser)3 linker, then VH. The light chain is unchanged in all variants.
VL: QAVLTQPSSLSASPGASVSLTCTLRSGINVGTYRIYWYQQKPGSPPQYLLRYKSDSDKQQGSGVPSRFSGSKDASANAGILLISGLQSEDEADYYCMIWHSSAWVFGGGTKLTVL
VH: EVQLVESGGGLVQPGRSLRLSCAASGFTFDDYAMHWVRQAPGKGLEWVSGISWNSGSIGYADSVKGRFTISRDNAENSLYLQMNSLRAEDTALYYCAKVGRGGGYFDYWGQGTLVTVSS

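The library (AAYL51) carries one to three amino acid substitutions per variant, with no insertions or deletions. In AlphaSeq, yeast of one mating type display the scFv and yeast of the other type display the target. Mating (16 h, 30 °C) was followed by selection of diploids and sequencing of their barcodes. Scores were corrected for input abundance and mapped to Kd with protein pairs of known affinity run in the same pool. Mating was done three times.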

Variants are written as CDR1, CDR2 and CDR3 of the heavy chain (limits as in the source). Parent: GFTFDDYAMH, GISWNSGSIGYADSVK, VGRGGGYFDY.
Affinities are written as log10 Kd with Kd in nM; a lower number is a better binder.
A pair that was not seen in that replicate is written "nd"; this usually means weak binding, but a binder can also be missed.

{"CDR-H1": "GFTFDGYAMH", "CDR-H2": "WISGNSGSIGYADSVK", "CDR-H3": "VGRGGGYFDY", "log10 Kd, replicates": "nd / nd / nd", "control signals": "0 of 9"}
{"CDR-H1": "GFTFDDYAMH", "CDR-H2": "GISWNSGSIGYAKSVE", "CDR-H3": "VGRGGWYFDY", "log10 Kd, replicates": "nd / nd / nd", "control signals": "0 of 9"}
{"CDR-H1": "GFTFDDYAAH", "CDR-H2": "GCSWYSGSIGYADSVK", "CDR-H3": "VGRGGGYFDY", "log10 Kd, replicates": "2.96 / nd / nd", "control signals": "1 of 9 (3.90)"}
{"CDR-H1": "GFTFDDYDMH", "CDR-H2": "GISWNVGSIGYADSVK", "CDR-H3": "VGRGGGYFDY", "log10 Kd, replicates": "4.39 / nd / 4.37", "control signals": "2 of 9 (4.06)"}
{"CDR-H1": "GFTFDDYGMH", "CDR-H2": "GISWFSGSIGYADSVK", "CDR-H3": "DGRGGGYFDY", "log10 Kd, replicates": "5.34 / nd / nd", "control signals": "0 of 9"}
{"CDR-H1": "GFTFDKYCMH", "CDR-H2": "GISWNSGSIGYADSSK", "CDR-H3": "VGRGGGYFDY", "log10 Kd, replicates": "5.31 / nd / nd", "control signals": "5 of 9 (4.33)"}
{"CDR-H1": "GFTFDDYAMH", "CDR-H2": "GISWNSGSQGYADSVK", "CDR-H3": "QGRGGGYFDR", "log10 Kd, replicates": "nd / nd / nd", "control signals": "5 of 9 (4.98)"}
{"CDR-H1": "GFTFKDYAMH", "CDR-H2": "GHSWNSGSIHYADSVK", "CDR-H3": "VGRGGGYFDY", "log10 Kd, replicates": "nd / nd / 3.30", "control signals": "0 of 9"}
{"CDR-H1": "GETFDDYAMH", "CDR-H2": "GISWNPGSIGYADHVK", "CDR-H3": "VGRGGGYFDY", "log10 Kd, replicates": "nd / 5.11 / nd", "control signals": "3 of 9 (5.04)"}
{"CDR-H1": "GFTFGDYAMH", "CDR-H2": "GISWNSGYIGYADEVK", "CDR-H3": "VGRGGGYFDY", "log10 Kd, replicates": "nd / nd / nd", "control signals": "0 of 9"}
{"CDR-H1": "GFTFDDYAMH", "CDR-H2": "GISWNSGSEGYAESVK", "CDR-H3": "HGRGGGYFDY", "log10 Kd, replicates": "nd / nd / nd", "control signals": "0 of 9"}
{"CDR-H1": "GFTFKDYTMH", "CDR-H2": "GISWNSFSIGYADSVK", "CDR-H3": "VGRGGGYFDY", "log10 Kd, replicates": "nd / nd / nd", "control signals": "0 of 9"}
{"CDR-H1": "GFTFDDYAMH", "CDR-H2": "GISWISGSIGWADSVK", "CDR-H3": "VGRGGGYFDY", "log10 Kd, replicates": "nd / nd / nd", "control signals": "2 of 9 (5.03)"}
{"CDR-H1": "GFTFDDYAPH", "CDR-H2": "GISWNSGSIGYADSVK", "CDR-H3": "VGRGSLYFDY", "log10 Kd, replicates": "5.49 / 5.48 / nd", "control signals": "4 of 9 (4.51)"}
{"CDR-H1": "GFNFDDYAMH", "CDR-H2": "GISWNSGSIGYADSVK", "CDR-H3": "VGRGGQYFDY", "log10 Kd, replicates": "nd / 4.50 / nd", "control signals": "1 of 9 (3.97)"}
{"CDR-H1": "GFTFDDYAMH", "CDR-H2": "GISWNSGSIGYADQVK", "CDR-H3": "TGRGEGYFDY", "log10 Kd, replicates": "4.01 / 3.92 / nd", "control signals": "4 of 9 (4.75)"}
{"CDR-H1": "GFTFDDYAMH", "CDR-H2": "NISWNSGSIGYADPVK", "CDR-H3": "VGRGGGYFDY", "log10 Kd, replicates": "nd / nd / nd", "control signals": "0 of 9"}
{"CDR-H1": "GFTFDDYAMH", "CDR-H2": "GISENSSSIGYADSVK", "CDR-H3": "VGRGGGRFDY", "log10 Kd, replicates": "4.72 / 5.16 / nd", "control signals": "3 of 9 (4.64)"}
{"CDR-H1": "GFTFDSYAMH", "CDR-H2": "GISWNSGSIGYADSLK", "CDR-H3": "VGRGGVYFDY", "log10 Kd, replicates": "nd / nd / nd", "control signals": "0 of 9"}
{"CDR-H1": "GFTFLDYAMH", "CDR-H2": "GINWNLGSIGYADSVK", "CDR-H3": "VGRGGGYFDY", "log10 Kd, replicates": "nd / nd / 4.76", "control signals": "2 of 9 (4.52)"}
{"CDR-H1": "GFMFDDYAMH", "CDR-H2": "GISWNSGSIGYADSAK", "CDR-H3": "VFRGGGYFDY", "log10 Kd, replicates": "nd / nd / nd", "control signals": "2 of 9 (3.72)"}
{"CDR-H1": "GFTFDDYAMH", "CDR-H2": "GISWNRGSIGYADSVA", "CDR-H3": "VGAGGGYFDY", "log10 Kd, replicates": "5.27 / nd / 3.63", "control signals": "3 of 9 (4.16)"}
{"CDR-H1": "GFTFFDYAMH", "CDR-H2": "GISWPSGSIGYADSVK", "CDR-H3": "VGRGGGYFDY", "log10 Kd, replicates": "4.97 / nd / nd", "control signals": "0 of 9"}
{"CDR-H1": "GFTFDDYAMH", "CDR-H2": "GISWNSGSEGYADSVK", "CDR-H3": "VGRNGGDFDY", "log10 Kd, replicates": "4.53 / nd / nd", "control signals": "0 of 9"}
{"CDR-H1": "GFTFDDYAMH", "CDR-H2": "CISWNSGSIGYADSVK", "CDR-H3": "VGRGGSYFTY", "log10 Kd, replicates": "nd / nd / nd", "control signals": "0 of 9"}

Excerpt, the first 3 entries:

{"CDR-H1": "GFTFDGYAMH", "CDR-H2": "WISGNSGSIGYADSVK", "CDR-H3": "VGRGGGYFDY", "log10 Kd, replicates": "nd / nd / nd", "control signals": "0 of 9"}
{"CDR-H1": "GFTFDDYAMH", "CDR-H2": "GISWNSGSIGYAKSVE", "CDR-H3": "VGRGGWYFDY", "log10 Kd, replicates": "nd / nd / nd", "control signals": "0 of 9"}
{"CDR-H1": "GFTFDDYAAH", "CDR-H2": "GCSWYSGSIGYADSVK", "CDR-H3": "VGRGGGYFDY", "log10 Kd, replicates": "2.96 / nd / nd", "control signals": "1 of 9 (3.90)"}

Nonspecific signal, from three strains lacking the peptide, appeared in 21% of pairings of library AAYL51, centred on 4.54 (5% of these signals below 3.26); values are not corrected for it. Also given: how often the same scFv was detected with the empty control strains, with their mean in brackets.
In this assay the parent's reference entry averaged 1.86; its copy inside this library read 0.88.